{
  "source": "patent US12104201B2",
  "about": "“Engineered gyri-like mutein aptamers, and related methods” (CROSSLIFE TECHNOLOGIES INC., priority 2019, dated 2024)",
  "system": "C. tepidium CTR107 variants, FAM-binding aptamers from phage display library (7 unique)",
  "test": "Fluorescence-binding assay, Kd by nonlinear regression fit to the Hill equation",
  "data": [
    {"substance": "5(6)-Carboxyfluorescein [FAM]", "values": [
      {"measurement": "increase in affinity compared to wildtype CTR107", "result": "50-700 fold"}
    ]}
  ]
}
